Earlier results on one molecule are cited in article PMC6017357, “In Vitro Inhibitory Effects of Synthetic Cannabinoid EAM-2201 on Cytochrome P450 and UDP-Glucuronosyltransferase Enzyme Activities in Human Liver Microsomes” (Molecules : A Journal of Synthetic Chemistry and Natural …, 2018).

The chains behind the UniProt entries cited, without tags or fusion partners.
UniProt P11712, whole entry: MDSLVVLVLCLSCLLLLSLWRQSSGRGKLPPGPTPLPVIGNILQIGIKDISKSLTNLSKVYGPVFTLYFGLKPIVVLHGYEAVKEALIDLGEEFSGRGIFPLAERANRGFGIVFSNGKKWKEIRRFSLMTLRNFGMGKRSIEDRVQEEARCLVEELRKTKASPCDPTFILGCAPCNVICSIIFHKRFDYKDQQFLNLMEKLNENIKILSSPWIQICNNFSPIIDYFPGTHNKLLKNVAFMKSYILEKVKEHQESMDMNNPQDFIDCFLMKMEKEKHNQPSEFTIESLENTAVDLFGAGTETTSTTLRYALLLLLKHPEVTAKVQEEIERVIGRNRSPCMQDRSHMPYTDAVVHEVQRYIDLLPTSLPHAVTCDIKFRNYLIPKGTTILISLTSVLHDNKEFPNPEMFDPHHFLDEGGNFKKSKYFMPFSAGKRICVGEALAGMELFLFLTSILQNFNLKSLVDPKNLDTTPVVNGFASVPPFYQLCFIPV

Structures are written as SMILES.

For this data set, the target named is CYP2C9 (Homo sapiens, UniProt P11712). The note with it: read-out: Ki, CYP2C9-catalyzed diclofenac hydroxylation; mixed or competitive inhibition, human liver microsomes; cited from earlier work.

Broadly, the Ki is a dissociation constant, usually derived from enzyme kinetics or from competition with a known ligand. For the molecule `CCCCCc1cc(O)c2c(c1)OC(C)(C)c1ccc(C)cc1-2` [cannabinol], the Ki is 1290 nM.
